# The whole screen tested about 350,000 compounds, of which about 450 (0.13%) were called active. This is one part of a sample in which actives are shown more often than they occur.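 Rule for the calls: active = replicate mean at a twofold rise or more (about +100% in these data); inactive = the rest.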
# Experiment: UUG initiation codon usage in yeast – whole organism, S. cerevisiae, single point, plate reader, primary screen (AID 602363);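 note: firefly luciferase made from a UUG start codon reports start codon fidelity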
# Conditions: S. cerevisiae UUG-firefly luciferase reporter, luminescence/redox ratio; at 18.7 µM; stronger effect = higher value
row,SMILES,activity score
1,COc1cccc(S(=O)(=O)N[C@@H]2CC[C@@H](CCNC(=O)Cc3ccncc3)O[C@H]2CO)c1,0.154% (inactive)
2,C[C@@H]1CN([C@@H](C)CO)C(=O)c2cc(-c3cccnc3)cnc2O[C@@H]1CN(C)C(=O)C1CC1,-5.34% (inactive)
3,O=C(C[C@@H]1C[C@@H]2c3cc(NC(=O)Nc4ccc(C(F)(F)F)cc4)ccc3O[C@@H]2[C@@H](CO)O1)NCCc1ccccc1,-18.2% (inactive)
4,C[C@@H]1CCCCO[C@H](CN(C)S(=O)(=O)c2cccs2)[C@@H](C)CN([C@@H](C)CO)C(=O)c2cc(NC(=O)NC3CCCCC3)ccc2O1,-8.53% (inactive)
5,CO[C@@H]1CN(C)C(=O)c2cc(NC(=O)C3CC3)ccc2OC[C@@H](C)N(C(=O)c2ccncc2)C[C@H]1C,0.045% (inactive)
6,CN(C)C(=O)c1ccc(-c2ccc([C@@H]3[C@@H](CO)N4CCCCN(Cc5cncnc5)C[C@@H]34)cc2)cc1,-3.82% (inactive)
7,O=C(c1cccnc1)N1C[C@@H]2[C@H](c3ccccc31)[C@@H](CO)N2C(=O)Nc1ccc(F)cc1,52.2% (inactive)
8,O=C(c1ccccc1F)N1C[C@@H]2[C@H](c3ccccc31)[C@H](CO)N2C(=O)C1CCCC1,6.27% (inactive)
9,O=C(C1CCC1)N1C[C@H]2[C@@H](c3ccccc31)[C@@H](CO)N2C(=O)c1ccccc1F,115% (active)
10,O=C(c1cccnc1)N1C[C@H]2[C@@H](c3ccccc31)[C@H](CO)N2C(=O)C1CCCCC1,-1.65% (inactive)
11,O=C(c1cccnc1)N1C[C@H]2[C@@H](c3ccccc31)[C@H](CO)N2C(=O)C1CC1,101% (active)
12,O=C(C1CCC1)N1C[C@@H]2[C@H](c3ccccc31)[C@H](CO)N2C(=O)c1ccccc1,53.9% (inactive)
13,COc1ccccc1-c1cn(CC[C@H]2CC[C@H](NC(=O)C3CCOCC3)[C@@H](CO)O2)nn1,-2.48% (inactive)
14,C[C@@H]1CN([C@H](C)CO)S(=O)(=O)c2ccc(-c3ccccc3)cc2O[C@@H]1CN(C)C(=O)C1CC1,1.27% (inactive)
15,Cn1cnc(CCNC(=O)C[C@H]2CC[C@H]3[C@@H](COC[C@H](O)CN3C(=O)C3CCCC3)O2)c1,2.13% (inactive)
16,C[C@@H]1CCCCO[C@@H](CN(C)C(=O)Nc2ccc(F)cc2)[C@H](C)CN([C@@H](C)CO)C(=O)c2cc(NS(=O)(=O)c3ccccc3)ccc2O1,-2.99% (inactive)
17,CCCC(=O)Nc1ccc2c(c1)C(=O)N(C)[C@H]1CC[C@@H](CC(=O)NCc3ccccc3)O[C@@H]1CO2,6.07% (inactive)
18,COc1cccc(S(=O)(=O)N2C[C@@H](O)COC[C@@H]3O[C@H](CC(=O)N4CCN(C)CC4)CC[C@H]32)c1,25.3% (inactive)
19,O=C(C1CCC1)N1C[C@H]2[C@@H](c3ccccc31)[C@H](CO)N2C(=O)Nc1cccc(F)c1,4.33% (inactive)
20,CN1c2ccc(C#Cc3cccnc3)cc2[C@H]2[C@H](CCN2S(=O)(=O)c2ccccc2)[C@@H]1CO,-20.3% (inactive)

row,SMILES,activity score
1,C[C@H]1CN([C@@H](C)CO)C(=O)c2cc(NC(=O)Cn3cnnn3)ccc2O[C@@H]1CN(C)CC1CCCCC1,-6.95% (inactive)
2,C[C@H]1CN([C@@H](C)CO)C(=O)c2cc(Br)cnc2O[C@@H]1CN(C)C(=O)c1ccccc1F,1.14% (inactive)
3,C[C@@H]1CCCCO[C@H](CN(C)Cc2ccc3c(c2)OCO3)[C@H](C)CN([C@@H](C)CO)C(=O)c2cc(NS(=O)(=O)c3cn(C)cn3)ccc2O1,0.464% (inactive)
4,C[C@H]1CCCCO[C@H](CN(C)CC2CCCCC2)[C@@H](C)CN([C@@H](C)CO)C(=O)c2cc(NS(=O)(=O)c3ccc(Cl)cc3)ccc2O1,19.2% (inactive)
5,Cc1noc(C)c1S(=O)(=O)Nc1ccc2c(c1)C(=O)N([C@@H](C)CO)C[C@@H](C)[C@@H](CN(C)S(=O)(=O)c1ccccc1)O2,-1.76% (inactive)
6,C[C@H]1CN([C@@H](C)CO)C(=O)c2cccc(NC(=O)C3CC3)c2O[C@@H]1CN(C)S(=O)(=O)c1ccc(F)cc1,-5.43% (inactive)
7,CN(C)CC(=O)Nc1ccc2c(c1)[C@@H]1C[C@H](CC(=O)NCc3ccc(Cl)cc3)O[C@@H](CO)[C@@H]1O2,26.4% (inactive)
8,COCC(=O)Nc1ccc2c(c1)C(=O)N(C)[C@@H]1CC[C@H](CC(=O)NCC3CCCCC3)O[C@H]1CO2,-1.78% (inactive)
9,CNC(=O)C[C@@H]1CC[C@@H]2[C@@H](COc3ccc(NC(=O)Cc4cccs4)cc3C(=O)N2C)O1,3.32% (inactive)
10,CC(C)C#Cc1ccc2c(c1)O[C@@H](CN(C)C(=O)C1CC1)[C@H](C)CN([C@H](C)CO)S2(=O)=O,1.46% (inactive)
11,O=S(=O)(Cc1ccccc1)N1CCCCN2[C@H](CO)[C@@H](c3ccc(-c4cncnc4)cc3)[C@H]2C1,-10.2% (inactive)
12,COc1ccc(NC(=O)N(C)C[C@@H]2OCCCC[C@H](C)Oc3ccc(NS(=O)(=O)c4cccs4)cc3C(=O)N([C@@H](C)CO)C[C@@H]2C)cc1,-14.6% (inactive)
13,C[C@H]1CN([C@@H](C)CO)C(=O)c2cccc(NS(C)(=O)=O)c2O[C@@H]1CN(C)C(=O)Nc1ccc(F)cc1,-0.709% (inactive)
14,COCC(=O)N(C)C[C@H]1Oc2ncc(-c3cccc(OC)c3)cc2C(=O)N([C@H](C)CO)C[C@H]1C,11.3% (inactive)
15,CO[C@H]1CN(C)C(=O)c2ccc(NS(=O)(=O)c3cn(C)cn3)cc2OC[C@@H](C)N(C)C[C@@H]1C,-8.25% (inactive)
16,C[C@@H]1CN([C@H](C)CO)C(=O)Cc2cc(NC(=O)CCCN(C)C)ccc2O[C@H]1CN(C)S(=O)(=O)c1cccs1,4.48% (inactive)
17,CCC(=O)N1[C@@H](CO)[C@@H]2c3ccccc3N(C(=O)c3cnccn3)C[C@@H]21,-8.18% (inactive)
18,O=C(N[C@@H]1CC[C@@H](CCNS(=O)(=O)Cc2ccccc2)O[C@@H]1CO)c1ccccc1F,-4.32% (inactive)
19,O=C(N[C@H]1CC[C@@H](CCNS(=O)(=O)Cc2ccccc2)O[C@H]1CO)c1ccccc1F,170% (active)
20,CC(C)NC(=O)N[C@@H]1CC[C@@H](CCNS(=O)(=O)Cc2ccccc2)O[C@@H]1CO,-4.26% (inactive)
